Among the data in patent publication EP0017102A1, “Composition containing a phenyl benzoic acid compound and acetaminophen combination for the treatment of pain and inflammation and process for preparing the same” (Merck & Co., Inc., priority 1979, dated 1980) are LD50 values, retold here.

This data set can be described thus: in vivo. The arrangement: species or system mice. Particulars: mouse, po. The procedure:
Measurements of the relative safety of the components and of the combination were carried out using acute oral toxicity studies in female mice. Randomly selected female albino mice (Carworth CF-1) weighing from 18 to 24 grams, and 6 to 7 weeks old, were used. The LD50 value for each drug was estimated from acute oral dose-response curves previously established. The following dose regimen was utilized:
Both drugs were prepared as suspensions in 1% aqueous methylcellulose (100 cps.), diflunisal as a 2% concentration and acetaminophen as a 5% concentration. The preparations were administered by gastric intubation using a metal catheter attached to a springe. The various doses were administered randomly with 20 mice per group. Food was withheld one to two hours before and three hours following drug treatment. Water was available at all times. When the two drugs were administered,diflunisal was always given first. The surviving mice were observed closely on the day of treatment and daily thereafter for a total test period of 14 days. Body weights were taken pretest and on days 7 and 14.

As for `O=C(O)c1cc(-c2ccc(F)cc2F)ccc1O` [Diflunisal, 2-hydroxy-5-(2',4'-difluorophenyl)benzoic acid], the LD50 (commonly the dose at which mortality reaches 50%) is 400 mg/kg.
